Biological target: tripeptidase of L.lactis subsp. cremoris Wg2 (Lactococcus lactis subsp. cremoris, UniProt P0C2T7)
Test: Effects of chemical agents on the peptidase activity (leu3 hydrolysis)
Type: biochemical
Conditions: reagent 0.1 mM; 0.84 μg enzyme/ml, 10 min at pH 7 (20°C) before leu3 was added; none = 100

Chains of the proteins cited; added tags and fusions are not shown.
UniProt P0C2T7, whole entry: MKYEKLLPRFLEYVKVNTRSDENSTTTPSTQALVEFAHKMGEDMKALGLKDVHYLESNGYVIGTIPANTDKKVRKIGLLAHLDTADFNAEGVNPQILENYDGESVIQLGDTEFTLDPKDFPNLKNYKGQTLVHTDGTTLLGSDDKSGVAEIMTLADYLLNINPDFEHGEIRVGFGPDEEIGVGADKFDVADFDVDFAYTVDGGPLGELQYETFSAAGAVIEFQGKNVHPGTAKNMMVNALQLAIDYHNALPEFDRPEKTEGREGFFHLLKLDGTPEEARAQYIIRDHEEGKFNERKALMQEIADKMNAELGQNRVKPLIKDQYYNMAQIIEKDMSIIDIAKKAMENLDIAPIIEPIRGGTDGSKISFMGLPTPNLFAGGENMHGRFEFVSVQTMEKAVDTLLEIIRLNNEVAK

## O=[As]c1ccccc1 (stereo not shown)
  relative activity (%): 118%

Source: patent EP0440303A1 (PROBICOM RESEARCH B.V., priority 1990, dated 1991)
